{
  "source": "patent US20120322768A1",
  "about": "“COMPOUNDS, COMPOSITIONS AND METHODS FOR TREATING PROTOZOAN INFECTIONS” (QUEEN MARY & WESTFIELD COLLEGE, priority 2009, published 2012)",
  "key": {"Vero cells": {"test_system": "Vero cells", "test": "Mammalian cell cytotoxicity, Vero cells (Alamar blue)", "type": "cell-based", "conditions": "read-out: IC50 Vero cells; Table 6"}, "THP-1 cells": {"test_system": "THP-1 cells", "test": "Mammalian cell cytotoxicity, THP-1 (Alamar blue)", "conditions": "read-out: IC50 THP1; 6 days"}},
  "data": [
    {"substance": "3-Fluoro-4-nitrobenzyl phosphoramide mustard", "values": [
      {"measurement": "IC50", "setting": "Vero cells", "value": "> 100", "unit": "µM"},
      {"measurement": "IC50", "setting": "THP-1 cells", "value": 17.6, "unit": "µM"}
    ]}
  ]
}
